Assay results taken from patent publication US10407409B2, “6-(5-hydroxy-1H-pyrazol-1-yl)nicotinamide inhibitors of PHD” (Takeda Pharmaceutical Company Limited, priority 2013, dated 2019).

By UniProt entry, the sequences of proteins in these tests, tags left out. Residues count along the entry.
UniProt Q9GZT9, 181-417 limits assumed: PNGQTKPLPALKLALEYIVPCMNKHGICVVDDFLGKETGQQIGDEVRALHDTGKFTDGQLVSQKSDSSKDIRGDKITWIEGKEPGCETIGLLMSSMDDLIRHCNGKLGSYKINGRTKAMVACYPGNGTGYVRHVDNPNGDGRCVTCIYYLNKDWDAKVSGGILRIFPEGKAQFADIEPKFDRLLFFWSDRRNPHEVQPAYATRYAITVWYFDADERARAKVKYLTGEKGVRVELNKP

How the values were obtained:
[1] = target: PHD2 enzyme (residues 181-417) (Homo sapiens (Human), UniProt Q9GZT9); assay: Inhibition of PHD enzyme (LC/MS peptide hydroxylation assay); assay type: biochemical; conditions: PHD2 (residues 181-417) 5 nM, 60 min pre-incubation; -log(IC50), IC50 molar
Description: Example A Inhibition of PHD Enzyme
The IC50 values for the PHD2 enzyme (residues 181-417) were determined by mixing increasing amounts of inhibitor with a fixed amount of enzyme (5 nM, final concentration) and Biotin labeled peptide (Biotin-Asp-Leu-Glu-Met-Leu-Ala-Pro-Tyr-Ile-Pro-Met-Asp-Asp-Asp-Phe-Gln-Leu, 1 uM final concentration) and 2-Oxyglutarate (2 uM final concentration) in 50 mM HEPES, 50 mM KCl, 0.5 mM TCEP, 2 uM FeCl2, 0.1 mg/ml BSA, at pH 7.3. The reaction was conducted by pre-incubating the enzyme in the presence of inhibitor for 60 min at room temperature. The activity of the free enzyme was measured by adding the peptide, the 2-Oxoglutarate (see above for final concentrations), and Ascorbic Acid (1 mM final concentration). The enzymatic activity was quenched after 60 min by adding an excess of a tight binding inhibitor to the assay mixture. The amount of product released was measured by using a LC/MS system (Agilent HPLC with Applied Biosystems API3000 Mass Spectrometer). Data were analyzed using the classical isotherm equation for the determination of IC50 values and are pIC50, i.e., −log(IC50), where IC50 is molar concentration and are reported as pIC50, i.e., −log(IC50), where IC50 is molar concentration.

[2] = system: HIF1a protein in H9c2 rat cardiomyocytes; assay: Cell-based HIF-alpha stabilization assay (inhibition of PHD in cells); conditions: 24 hrs compound incubation, HIF1a protein by ELISA
Description: Example B Inhibition of PHD in Cells
PHD Inhibition is Determined Using (Secondary Assay)
Cell-Based HIF-Alpha Stabilization Assay:
H9c2 rat cardiomyocytes (ATCC) were seeded in 96-well tissue culture microplates and cultured for 24 hours prior to addition of compounds (11 point range of serial dilutions) or dimethylsulfoxide vehicle. After 24 hrs of compound incubation, whole cell extracts were prepared by lysing cells in cell extraction buffer containing protease and phosphatase inhibitors (Meso-Scale Discovery). HIF1a protein content was assessed by ELISA (Meso-Scale Discovery) and expressed as a % relative to the maximum response obtained from the positive control, desferrioxamine (Sigma-Aldrich). Compound EC50s were obtained by curve-fitting using XLfit4 MicroSoft Excel curve-fitting software. Compound EC50pos were obtained using XLfit4 to calculate the compound concentration that results in 50% of the desferrioxamine maximum response.

COc1cc(-c2cnn(-c3ccc(C(=O)NCC4CCOCC4)cn3)c2O)ccn1
PHD Inhibition (pIC50) [1]: 7.1
Inhibition of PHD in cells (pEC50) [2]: 6.27
